Data as given in ChEMBL document CHEMBL1129950, “Structural requirements for binding of anandamide-type compounds to the brain cannabinoid receptor” (J Med Chem, 1997).

By UniProt entry, the sequences of proteins in these tests, tags left out.
UniProt P20272, whole entry: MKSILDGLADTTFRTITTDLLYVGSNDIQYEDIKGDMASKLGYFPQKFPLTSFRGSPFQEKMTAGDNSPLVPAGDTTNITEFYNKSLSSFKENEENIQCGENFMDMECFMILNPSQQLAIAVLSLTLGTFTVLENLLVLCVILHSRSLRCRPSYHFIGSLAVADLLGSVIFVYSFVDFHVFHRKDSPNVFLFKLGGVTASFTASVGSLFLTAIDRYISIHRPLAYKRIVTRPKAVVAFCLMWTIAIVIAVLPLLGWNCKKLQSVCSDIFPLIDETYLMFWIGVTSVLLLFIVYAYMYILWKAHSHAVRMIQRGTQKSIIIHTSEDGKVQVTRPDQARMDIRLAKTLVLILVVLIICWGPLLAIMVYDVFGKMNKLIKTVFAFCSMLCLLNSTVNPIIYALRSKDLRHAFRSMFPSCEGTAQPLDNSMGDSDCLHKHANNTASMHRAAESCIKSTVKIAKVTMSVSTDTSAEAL

Target: Cannabinoid receptor 1 (Rattus norvegicus, UniProt P20272)
Experiment: In vitro binding affinity was determined against rat brain Cannabinoid receptor 1
In short: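 Drug was serially diluted in 5 mg/mL fatty-acid-free BSA. Final 1 mL held 45 mM Tris-HCl, 2.7 mM MgCl2, 0.9 mM EDTA and 0.58 mg BSA. Incubation was 30 °C, 90 min. Bound ligand was separated by centrifugation, and pellet tips were scintillation-counted. Ki came from displacement.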

Row | SMILES | Ki
1 | CCCCC/C=C\C/C=C\C/C=C\C/C=C\CCC(C)C(=O)NCCO (stereo unspecified) | 0.0325 µM
2 | CCCCC/C=C\C/C=C\C/C=C\C/C=C\CCCC(=O)N(CCO)CCO | > 10 µM
3 | CCCCC/C=C\C/C=C\C/C=C\C/C=C\CCC(C)(C)C(=O)NC[C@@H](C)O | 0.154 µM
4 | CCCCC/C=C\C/C=C\C/C=C\C/C=C\CCCC(=O)NCCCO | 0.0299 µM
5 | CCCCC/C=C\C/C=C\CCCCCCCC(=O)NCCO (stereo in doubt; 37) [LINOLEOYLETHANOLAMIDE] | 4.6 µM
6 | CCCCC/C=C\C/C=C\CCCCCCCC(=O)NCCO (stereo in doubt; 38) [LINOLEOYLETHANOLAMIDE] | > 25 µM
